Measurements published in patent publication US9464084B2, “P2X7 modulators” (Janssen Pharmaceutica NV, priority 2013, dated 2016).

Amino acid sequences for entries named in this document (tags omitted). A change or cut given only in a name is not applied to a line headed by its entry.
UniProt Q99572: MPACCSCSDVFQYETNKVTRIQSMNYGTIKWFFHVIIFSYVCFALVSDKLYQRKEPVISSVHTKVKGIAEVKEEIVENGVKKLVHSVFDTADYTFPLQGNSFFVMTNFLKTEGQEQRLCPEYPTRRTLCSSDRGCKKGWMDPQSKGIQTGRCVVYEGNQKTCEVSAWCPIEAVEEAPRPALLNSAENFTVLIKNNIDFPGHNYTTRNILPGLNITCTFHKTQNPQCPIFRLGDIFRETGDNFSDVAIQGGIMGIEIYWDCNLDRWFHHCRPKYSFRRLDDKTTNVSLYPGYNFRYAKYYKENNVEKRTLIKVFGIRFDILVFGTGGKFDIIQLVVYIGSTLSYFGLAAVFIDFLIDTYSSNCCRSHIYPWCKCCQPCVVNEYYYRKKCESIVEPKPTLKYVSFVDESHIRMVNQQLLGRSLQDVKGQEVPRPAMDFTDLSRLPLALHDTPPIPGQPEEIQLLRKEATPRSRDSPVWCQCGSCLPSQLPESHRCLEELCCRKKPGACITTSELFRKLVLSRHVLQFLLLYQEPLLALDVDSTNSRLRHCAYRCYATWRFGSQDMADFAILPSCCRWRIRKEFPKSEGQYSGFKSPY
UniProt Q64663: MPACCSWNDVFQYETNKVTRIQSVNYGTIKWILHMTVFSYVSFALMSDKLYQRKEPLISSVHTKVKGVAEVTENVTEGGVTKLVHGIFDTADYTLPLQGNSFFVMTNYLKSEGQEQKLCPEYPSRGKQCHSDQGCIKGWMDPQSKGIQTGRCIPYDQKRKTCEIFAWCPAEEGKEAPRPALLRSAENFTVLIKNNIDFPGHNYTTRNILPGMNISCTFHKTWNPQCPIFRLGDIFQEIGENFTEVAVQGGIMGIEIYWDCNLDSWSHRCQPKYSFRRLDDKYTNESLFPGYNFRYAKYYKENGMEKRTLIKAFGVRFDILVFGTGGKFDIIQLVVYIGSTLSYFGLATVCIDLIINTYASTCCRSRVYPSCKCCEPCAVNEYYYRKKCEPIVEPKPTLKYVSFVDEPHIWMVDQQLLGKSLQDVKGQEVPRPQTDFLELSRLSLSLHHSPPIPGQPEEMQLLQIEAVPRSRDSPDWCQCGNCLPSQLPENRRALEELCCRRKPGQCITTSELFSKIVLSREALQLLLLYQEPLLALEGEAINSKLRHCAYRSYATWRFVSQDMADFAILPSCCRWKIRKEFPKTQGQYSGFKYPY

Key:
P2X7 [1] = target: T1, P2X7 (Homo sapiens (Human), UniProt Q99572); assay: Radioligand binding, tritiated A-804598, human P2X7-1321N1 cell membranes; settings: 1 hour at 4° C.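 Also: ki obtained from the binding IC50 after correction for tracer concentration and tracer affinity.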
rat P2X7 = rat P2X7 (Rattus norvegicus (Rat), UniProt Q64663); assay: Ca2+ flux (FLIPR) in 1321N1 cells expressing recombinant rat P2X7 channel; format: cell-based; settings: 250 μM BzATP;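 also: Calcium-4 dye fluorescence change read 180 s after agonist addition, following 30 min cell preincubation with test compound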
P2X7 [2] = target: T1, P2X7; assay: Ca2+ flux (FLIPR) in 1321N1 cells expressing recombinant human P2X7 channel; format: cell-based; settings: 250 μM BzATP;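 also: Calcium-4 dye-loaded cells exposed to compound for 30 min before agonist addition, fluorescence change read 180 s after agonist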

SMILES | Ki (P2X7 [1]) [nM] | IC50 (rat P2X7) [nM] | also measured
Cc1nc2c(n1-c1ccccc1)CCN(C(=O)c1cccc(C(F)(F)F)c1Cl)C2 [Example 37, (2-Chloro-3-(trifluoromethyl)phenyl)(2-methyl-1-phenyl-6,7-dihydro-1H-imidazo[4,5-c]pyridin-5(4H)-yl)methanone] | 79.4 | – | –
CC1(C)c2ncn(-c3ccccc3)c2CCN1C(=O)c1cccc(C(F)(F)F)c1Cl [Example 53, 5-{[2-Chloro-3-(trifluoromethyl)phenyl]carbonyl}-4,4-dimethyl-1-phenyl-4,5,6,7-tetrahydro-1H-imidazo[4,5-c]pyridine] | 741 | – | –
Cn1nc2c(c1-c1cccnc1)CCN(C(=O)c1cccc(C(F)(F)F)c1Cl)C2 [Example 107, 6-{[2-Chloro-3-(trifluoromethyl)phenyl]carbonyl}-2-methyl-3-pyridin-3-yl-4,5,6,7-tetrahydro-2H-pyrazolo[3,4-c]pyridine] | – | 794 | –
C[C@H]1c2ncn(-c3ccc(F)cc3)c2CCN1C(=O)c1cccc(C(F)(F)F)c1Cl (single isomer, unassigned) [Example 47] | 316 | – | –
CC1C=CN=C(n2nnc3c2CCN(C(=O)c2cccc(C(F)(F)F)c2Cl)[C@@H]3C)N1 (single isomer, unassigned) [Example 234, (4R*)-(2-Chloro-3-(trifluoromethyl)phenyl)((4R)-4-methyl-1-(6-methyl-1,6-dihydropyrimidin-2-yl)-6,7-dihydro-1H-[1,2,3]triazolo[4,5-c]pyridin-5(4H)-yl)methanone] | 79.4 | – | –
CC1c2ncn(-c3ccccn3)c2CCN1C(=O)c1cccc(C(F)(F)F)c1Cl (centres unmarked) [Example 17, (2-Chloro-3-(trifluoromethyl)phenyl)(4-methyl-1-(pyridin-2-yl)-6,7-dihydro-1H-imidazo[4,5-c]pyridin-5(4H)-yl)methanone] | – | 156 | –
C[C@@H]1Cc2c(nnn2-c2ccc(F)cc2)[C@H](C)N1C(=O)c1cccc(C(F)(F)F)c1Cl [Example 286, (2-chloro-3-(trifluoromethyl)phenyl)((4S,6R)-1-(4-fluorophenyl)-4,6-dimethyl-6,7-dihydro-1H-[1,2,3]triazolo[4,5-c]pyridin-5(4H)-yl)methanone] | – | 144 | –
C[C@H]1c2ncn(-c3ncc(F)cn3)c2CCN1C(=O)c1cccc(C(F)(F)F)c1Cl (single isomer, unassigned) [Example 194, (S*)-(2-Chloro-3-(trifluoromethyl)phenyl)(1-(5-fluoropyrimidin-2-yl)-4-methyl-6,7-dihydro-1H-imidazo[4,5-c]pyridin-5(4H)-yl)methanone] | – | > 10000 | –
CC1Cc2c(nnn2-c2ncc(F)cn2)CN1C(=O)c1ccc(F)c(Cl)c1Cl (centres unmarked) [Example 213, 5-[(2,3-Dichloro-4-fluorophenyl)carbonyl]-1-(5-fluoropyrimidin-2-yl)-6-methyl-4,5,6,7-tetrahydro-1H-[1,2,3]triazolo[4,5-c]pyridine] | – | 10.6 | –
CC1c2nnn(-c3cncnc3)c2CCN1C(=O)c1cccc(C(F)(F)F)c1Cl (centres unmarked) [Example 177, (2-Chloro-3-(trifluoromethyl)phenyl)(4-methyl-1-(pyrimidin-5-yl)-6,7-dihydro-1H-[1,2,3]triazolo[4,5-c]pyridin-5(4H)-yl)methanone] | 79.4 | – | –
Cn1nc(-c2ccc(F)cc2)c2c1CN(C(=O)c1cccc(C(F)(F)F)c1Cl)CC2 [Example 106, 6-{[2-Chloro-3-(trifluoromethyl)phenyl]carbonyl}-3-(4-fluorophenyl)-1-methyl-4,5,6,7-tetrahydro-1H-pyrazolo[3,4-c]pyridine] | 251 | – | –
CCOC(=O)C1c2ncn(-c3cnccn3)c2CCN1C(=O)c1cccc(C(F)(F)F)c1Cl (centres unmarked) [Example 28, Ethyl 5-{[2-chloro-3-(trifluoromethyl)phenyl]carbonyl}-1-pyrazin-2-yl-4,5,6,7-tetrahydro-1H-imidazo[4,5-c]pyridine-4-carboxylate] | 79.4 | – | –
O=C(c1cccc(C(F)(F)F)c1Cl)N1CCc2c(nnn2-c2cnccn2)C1c1ccccc1 (centres unmarked) [Example 77, 5-{[2-Chloro-3-(trifluoromethyl)phenyl]carbonyl}-4-phenyl-1-pyrazin-2-yl-4,5,6,7-tetrahydro-1H-[1,2,3]triazolo[4,5-c]pyridine] | – | – | IC50 (P2X7 [2]): 126 nM
CC1Cc2c(nnn2-c2ccccc2)C(C)N1C(=O)c1cccc(C(F)(F)F)c1Cl (centres unmarked) [Example 240, (2-Chloro-3-(trifluoromethyl)phenyl)(4,6-dimethyl-1-phenyl-6,7-dihydro-1H-[1,2,3]triazolo[4,5-c]pyridin-5(4H)-yl)methanone] | – | – | IC50 (P2X7 [2]): 100 nM
CC1Cc2c(nnn2-c2cc(F)ccn2)CN1C(=O)c1cccc(C(F)(F)F)c1Cl (centres unmarked) [Example 176, (2-Chloro-3-(trifluoromethyl)phenyl)(1-(4-fluoropyridin-2-yl)-6-methyl-6,7-dihydro-1H-[1,2,3]triazolo[4,5-c]pyridin-5(4H)-yl)methanone] | – | 7.2 | –
C[C@H]1Cc2c(nnn2-c2ccc(F)cc2)[C@H](C)N1C(=O)c1cccc(C(F)(F)F)c1Cl [Example 285, (2-chloro-3-(trifluoromethyl)phenyl)((4S,6S)-1-(4-fluorophenyl)-4,6-dimethyl-6,7-dihydro-1H-[1,2,3]triazolo[4,5-c]pyridin-5(4H)-yl)methanone] | – | – | IC50 (P2X7 [2]): 671 nM

SMILES | Ki (P2X7 [1]) [nM] | IC50 (rat P2X7) [nM] | also measured
CC1CN(C(=O)c2cccc(C(F)(F)F)c2Cl)C(C)c2nnn(-c3ccc(F)cc3)c21 (centres unmarked) [Example 238, (2-Chloro-3-(trifluoromethyl)phenyl)(1-(4-fluorophenyl)-4,7-dimethyl-6,7-dihydro-1H-[1,2,3]triazolo[4,5-c]pyridin-5(4H)-yl)methanone] | 79.4 | – | –
Cc1c(C(=O)N2CCc3c(nnn3-c3ncccn3)C2C)cccc1C(F)(F)F (centres unmarked) [Example 282, (4-methyl-1-(pyrimidin-2-yl)-6,7-dihydro-1H-[1,2,3]triazolo[4,5-c]pyridin-5(4H)-yl)(2-methyl-3-(trifluoromethyl)phenyl)methanone] | – | 19.1 | –
O=C(c1cccc(C(F)(F)F)c1Cl)N1CCc2c(ncn2-c2ccccc2)C1CO (centres unmarked) [Example 30, (5-{[2-Chloro-3-(trifluoromethyl)phenyl]carbonyl}-1-phenyl-4,5,6,7-tetrahydro-1H-imidazo[4,5-c]pyridin-4-yl)methanol] | 398 | – | –
C[C@@H]1c2nnn(-c3ccccn3)c2CCN1C(=O)c1ccc(F)c(Cl)c1Cl (single isomer, unassigned) [Example 141, (R*)-(2,3-Dichloro-4-fluorophenyl)(4-methyl-1-(pyridin-2-yl)-6,7-dihydro-1H-[1,2,3]triazolo[4,5-c]pyridin-5(4H)-yl)methanone] | – | > 10000 | –
CC1Cc2c(nnn2-c2cc[nH]n2)CN1C(=O)c1cccc(C(F)(F)F)c1Cl (centres unmarked) [Example 210, (2-chloro-3-(trifluoromethyl)phenyl)(6-methyl-1-(1H-pyrazol-3-yl)-6,7-dihydro-1H-[1,2,3]triazolo[4,5-c]pyridin-5(4H)-yl)methanone] | – | 7.7 | –
O=C(c1cccc(Cl)c1Cl)N1CCc2c(-c3ccc(F)cc3)n[nH]c2C1 [Example 114, 6-[(2,3-Dichlorophenyl)carbonyl]-3-(4-fluorophenyl)-4,5,6,7-tetrahydro-2H-pyrazolo[3,4-c]pyridine] | 251 | – | –
CC(C)C1c2ncn(-c3cnccn3)c2CCN1C(=O)c1cccc(C(F)(F)F)c1Cl (centres unmarked) [Example 16, (2-Chloro-3-(trifluoromethyl)phenyl)(4-isopropyl-1-(pyrazin-2-yl)-6,7-dihydro-1H-imidazo[4,5-c]pyridin-5(4H)-yl)methanone] | 251 | – | –
Cn1nc2c(c1-c1cccnc1)CCN(C(=O)c1cccc(Cl)c1Cl)C2 [Example 111, 6-[(2,3-Dichlorophenyl)carbonyl]-2-methyl-3-pyridin-3-yl-4,5,6,7-tetrahydro-2H-pyrazolo[3,4-c]pyridine] | – | 1580 | –
O=C(c1cccc(C(F)(F)F)c1Cl)N1CCc2c(nc(C(F)(F)F)n2-c2ccccc2)C1 [Example 38, (2-Chloro-3-(trifluoromethyl)phenyl)(1-phenyl-2-(trifluoromethyl)-6,7-dihydro-1H-imidazo[4,5-c]pyridin-5(4H)-yl)methanone] | 251 | 126 | –
O=C(c1ccc(Cl)cc1Cl)N1CCc2c(nnn2-c2ncccn2)C1 [Example 257, (2,4-dichlorophenyl)(1-(pyrimidin-2-yl)-6,7-dihydro-1H-[1,2,3]triazolo[4,5-c]pyridin-5(4H)-yl)methanone] | – | 6170 | –
CC1c2ncn(-c3ccc(F)cc3)c2CCN1C(=O)c1cccc(C(F)(F)F)c1Cl (centres unmarked) [Example 18, (2-Chloro-3-(trifluoromethyl)phenyl)(1-(4-fluorophenyl)-4-methyl-6,7-dihydro-1H-imidazo[4,5-c]pyridin-5(4H)-yl)methanone] | – | 916 | –
Cc1c(C(=O)N2CCc3c(nnn3-c3ncccn3)[C@H]2C)cccc1C(F)(F)F (single isomer, unassigned) [Example 188, (R*)-(4-methyl-1-(pyrimidin-2-yl)-6,7-dihydro-1H-[1,2,3]triazolo[4,5-c]pyridin-5(4H)-yl)(2-methyl-3-(trifluoromethyl)phenyl)methanone] | – | 8.5 | –
CC1c2ncn(-c3cnccn3)c2C=CN1C(=O)c1cccc(C(F)(F)F)c1Cl (centres unmarked) [Example 56, 5-{[2-Chloro-3-(trifluoromethyl)phenyl]carbonyl}-4-methyl-1-pyrazin-2-yl-4,5-dihydro-1H-imidazo[4,5-c]pyridine] | 79.4 | – | –
CC1c2nnn(-c3ccc(F)cn3)c2CCN1C(=O)c1cccc(C(F)(F)F)c1Cl (centres unmarked) [Example 71, 5-{[2-Chloro-3-(trifluoromethyl)phenyl]carbonyl}-1-(5-fluoropyridin-2-yl)-4-methyl-4,5,6,7-tetrahydro-1H-[1,2,3]triazolo[4,5-c]pyridine] | 251 | – | –
COc1ccccc1-n1nnc2c1CCN(C(=O)c1cccc(C(F)(F)F)c1Cl)C2 [Example 125, (2-Chloro-3-(trifluoromethyl)phenyl)(1-(2-methoxyphenyl)-6,7-dihydro-1H-[1,2,3]triazolo[4,5-c]pyridin-5(4H)-yl)methanone] | 251 | – | –
